Earlier results in patent publication US12128045B2, “Platinum-resistant cancer treatment” (BTG International Limited, priority 2017, dated 2024).

Molecular target: thymidylate synthase (TS)
Details: read-out: Ki against isolated target thymidine synthase; cited from earlier work

SMILES: Nc1nc2[nH]cc(CCc3ccc(C(=O)N[C@@H](CCC(=O)O)C(=O)O)cc3)c2c(=O)[nH]1 [pemetrexed]
- Ki: 1.4 nM
